# AlphaSeq binding of Ab-14 light chain variants to a spike HR2 peptide

The measurements come from Engelhart et al. 2022 (doi:10.1038/s41597-022-01779-4) through the FLAb antibody collection.

The target is the same throughout: PDVDLGDISGINAS, from the HR2 region of SARS-CoV-2 spike.

Each scFv is VH, a 15-residue (Gly4Ser)3 linker, VL, as in the parent Ab-14, and differs from it in the CDRs of the light chain only.
VH: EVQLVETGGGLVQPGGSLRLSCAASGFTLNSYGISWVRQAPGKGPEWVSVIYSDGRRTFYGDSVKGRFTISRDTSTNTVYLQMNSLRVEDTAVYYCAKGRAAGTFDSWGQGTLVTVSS
VL: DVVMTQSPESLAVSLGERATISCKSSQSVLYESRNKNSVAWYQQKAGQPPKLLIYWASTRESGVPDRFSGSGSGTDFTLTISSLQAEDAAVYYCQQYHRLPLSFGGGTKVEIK

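The parent was found by panning a naive human phage display library on the peptide. In library AAYL50, one, two or three CDR residues were substituted; doubles and triples were drawn at random. AlphaSeq pools MATa yeast showing the antibodies with MATalpha yeast showing the peptide. The frequency of each diploid, read from paired DNA barcodes, reflects how well the two displayed proteins bind. Each replicate has its own calibration line, from reference interactions of the BCL2 family. The assay was run in three technical replicates.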

Sequences are complete VL domains. Every variant below is changed at W56 of the VL (sequential numbering). The Kd shown is the geometric mean over detected replicates; a lower Kd is a better binder. "nd" marks a missing value. The strain was present, yet no cells mated with the target were sequenced in any replicate, which points to weak or no binding. As a blank, each scFv also met three strains without target: over library AAYL50, 18% of these pairings were detected, typically at 15 µM and seldom below 970 nM. The control count says in how many pairings with the empty strains this scFv gave a signal. For reference, the parent read 4.4 nM as the reference entry and 48 nM as a member of this library.

Variant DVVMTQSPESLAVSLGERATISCKSSQSVLYESRNKNSVAWYQQKAGQPPKLLIYFASTRESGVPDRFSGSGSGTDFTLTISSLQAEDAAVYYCQQKHRGPLSFGGGTKVEIK gave 7.6 µM (1 of 3 replicates; controls 4 of 9). Variant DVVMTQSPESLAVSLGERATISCKSSQSCLYESRNKNSVAWYQQKAGQPPKLLIYGASTRESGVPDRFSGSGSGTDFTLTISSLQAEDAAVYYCQQYHRLQLSFGGGTKVEIK showed 43 nM (3 of 3 replicates; controls 1 of 9). Variant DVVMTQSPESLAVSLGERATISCKSSQSVLYESRNKNSVMWYQQKAGQPPKLLIYRASTRESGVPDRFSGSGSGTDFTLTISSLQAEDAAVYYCQQYSRLPLSFGGGTKVEIK gave 43 µM (2 of 3 replicates; controls 3 of 9). Variant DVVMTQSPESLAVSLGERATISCKSSQSVLYESRNKNSVAWYQQKAGQPPKLLIYYASTRESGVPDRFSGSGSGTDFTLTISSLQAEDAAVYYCQQYHRLKLSFGGGTKVEIK showed 7.8 nM (3 of 3 replicates; controls 1 of 9). For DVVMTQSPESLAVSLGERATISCKSSQSVLNESSNKNSVAWYQQKAGQPPKLLIYGASTRESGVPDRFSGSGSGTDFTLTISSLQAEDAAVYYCQQYHRLPLSFGGGTKVEIK, the assay gave 3.6 nM (3 of 3 replicates; controls 8 of 9). For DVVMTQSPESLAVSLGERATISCKSSQSVLYESRNKNSVAWYQQKAGQPPKLLIYMASTRESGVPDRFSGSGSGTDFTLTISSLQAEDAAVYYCQQYHRLPLSFGGGTKVEIK, the assay gave 2.2 µM (1 of 3 replicates; controls 0 of 9). Variant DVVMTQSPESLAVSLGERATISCKSSQSVLYEMRNKNSVAWYQQKAGQPPKLLIYDASTRESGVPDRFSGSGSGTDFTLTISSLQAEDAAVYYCQTYHRLPLSFGGGTKVEIK showed 4.0 nM (3 of 3 replicates; controls 3 of 9).

Variant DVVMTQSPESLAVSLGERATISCKSSQSVLYEARNKNSVAWYQQKAGQPPKLLIYNASTRESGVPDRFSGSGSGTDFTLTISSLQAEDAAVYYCQQYHRWPLSFGGGTKVEIK gave 3.1 nM (3 of 3 replicates; controls 1 of 9). Variant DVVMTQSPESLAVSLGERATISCKSSQSVLYESRNKGSVAWYQQKAGQPPKLLIYKASTRESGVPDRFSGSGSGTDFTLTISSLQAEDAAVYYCQQSHRLPLSFGGGTKVEIK gave 40 µM (2 of 3 replicates; controls 5 of 9). Variant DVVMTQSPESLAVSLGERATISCKSGQSVLYESRNKNSVAWYQQKAGQPPKLLIYAASTRESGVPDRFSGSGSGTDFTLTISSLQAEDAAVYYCQSYHRLPLSFGGGTKVEIK showed nd (0 of 3 replicates; controls 0 of 9). With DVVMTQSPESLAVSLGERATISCKSSQSVLYESRNKNPVAWYQQKAGQPPKLLIYHAPTRESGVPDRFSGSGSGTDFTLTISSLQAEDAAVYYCQQYHRLPLSFGGGTKVEIK the result was nd (0 of 3 replicates; controls 2 of 9). Variant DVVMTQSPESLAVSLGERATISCKSSQSVLYESRNKNSVAWYQQKAGQPPKLLIYQASKRESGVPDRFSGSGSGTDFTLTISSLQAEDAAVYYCQQIHRLPLSFGGGTKVEIK gave 150 nM (3 of 3 replicates; controls 4 of 9). Variant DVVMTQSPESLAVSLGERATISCKSSQSVLYESRNKNSVAWYQQKAGQPPKLLIYHASCRESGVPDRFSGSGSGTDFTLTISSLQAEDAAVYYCKQYHRLPLSFGGGTKVEIK showed 110 nM (3 of 3 replicates; controls 3 of 9). With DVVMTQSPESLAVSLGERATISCKSSQSVLYESRNKNSVAWYQQKAGQPPKLLIYNASTNESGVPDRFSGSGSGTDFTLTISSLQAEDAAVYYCQQYHRLPLNFGGGTKVEIK the result was 980 nM (3 of 3 replicates; controls 8 of 9).

Variant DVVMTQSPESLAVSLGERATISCKSSQSVLIESRNKNSVAWYQQKAGQPPKLLIYPAATRESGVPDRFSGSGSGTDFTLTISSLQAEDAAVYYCQQYHRLPLSFGGGTKVEIK gave 18 µM (3 of 3 replicates; controls 3 of 9). With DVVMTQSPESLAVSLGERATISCKSSQFVYYESRNKNSVAWYQQKAGQPPKLLIYTASTRESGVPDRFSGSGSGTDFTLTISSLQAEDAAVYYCQQYHRLPLSFGGGTKVEIK the result was 19 nM (3 of 3 replicates; controls 5 of 9). Variant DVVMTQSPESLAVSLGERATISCKSSQSVLYFSRNKNSVAWYQQKAGQPPKLLIYAASTRESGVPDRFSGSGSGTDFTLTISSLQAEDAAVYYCQMYHRLPLSFGGGTKVEIK gave 5.6 nM (3 of 3 replicates; controls 6 of 9). Variant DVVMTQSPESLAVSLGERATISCASSQSVTYESRNKNSVAWYQQKAGQPPKLLIYGASTRESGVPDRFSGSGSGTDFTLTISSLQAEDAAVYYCQQYHRLPLSFGGGTKVEIK showed 460 pM (3 of 3 replicates; controls 1 of 9). With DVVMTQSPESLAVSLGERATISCKSSQSVLYESRNKMSVAWYQQKAGQPPKLLIYKASTRESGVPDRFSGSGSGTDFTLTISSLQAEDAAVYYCQQYHSLPLSFGGGTKVEIK the result was 5.4 nM (3 of 3 replicates; controls 3 of 9). With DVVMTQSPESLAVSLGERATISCKSSQSVLYESRNKNSVAWYQQKAGQPPKLLIYKWSTRPSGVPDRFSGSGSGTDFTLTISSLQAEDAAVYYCQQYHRLPLSFGGGTKVEIK the result was 120 µM (1 of 3 replicates; controls 0 of 9). Variant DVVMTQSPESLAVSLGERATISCKSSQSVLYESRNKGSVAWYQQKAGQPPKLLIYKASTRESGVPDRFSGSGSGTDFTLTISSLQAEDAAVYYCQQYHRTPLSFGGGTKVEIK showed 73 nM (3 of 3 replicates; controls 2 of 9).

Variant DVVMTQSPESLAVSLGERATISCKSSQNVLYESRNKNSVAWYQQKAGQPPKLLIYQASTRMSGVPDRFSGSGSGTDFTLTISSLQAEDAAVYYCQQYHRLPLSFGGGTKVEIK gave 1.3 nM (3 of 3 replicates; controls 8 of 9). For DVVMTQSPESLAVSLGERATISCKSSQAVLYESRNKNVVAWYQQKAGQPPKLLIYPASTRESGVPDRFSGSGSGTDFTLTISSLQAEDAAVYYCQQYHRLPLSFGGGTKVEIK, the assay gave nd (0 of 3 replicates; controls 0 of 9).

Excerpt, the first 3 entries:

Variant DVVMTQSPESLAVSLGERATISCKSSQSVLYESRNKNSVAWYQQKAGQPPKLLIYFASTRESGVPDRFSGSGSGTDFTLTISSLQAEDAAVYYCQQKHRGPLSFGGGTKVEIK showed 7.6 µM (1 of 3 replicates; controls 4 of 9).
Variant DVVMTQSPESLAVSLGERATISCKSSQSCLYESRNKNSVAWYQQKAGQPPKLLIYGASTRESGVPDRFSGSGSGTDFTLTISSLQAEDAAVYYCQQYHRLQLSFGGGTKVEIK showed 43 nM (3 of 3 replicates; controls 1 of 9).
Variant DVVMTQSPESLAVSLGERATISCKSSQSVLYESRNKNSVMWYQQKAGQPPKLLIYRASTRESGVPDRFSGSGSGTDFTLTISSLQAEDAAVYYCQQYSRLPLSFGGGTKVEIK showed 43 µM (2 of 3 replicates; controls 3 of 9).